Key:
[1] = tested on: trypsin, chymotrypsin and elastase; assay: Metabolic stability in pancreatic enzyme mix (ESMS, selected ion monitoring); settings: stability: decrease in SIM signal after 24 h in degradation solution, chymotrypsin and elastase in 100 mM ammoniumbicarbonate pH 8.0, 37°C
[2] = tested on: carboxypeptidase Y and B; assay: Metabolic stability in carboxypeptidase mix (ESMS, selected ion monitoring); settings: stability: decrease in SIM signal after 24 h in degradation solution; carboxypeptidase Y and B in 50 mM ammoniumacetate pH 4.5, 37°C

CSCC[C@H](NC(=O)[C@H](CC(C)C)NC(=O)[C@H](Cc1c[nH]c2ccccc12)NC(=O)[C@H](CCC(N)=O)NC(=O)[C@@H](NC(=O)[C@H](Cc1ccccc1)NC(=O)[C@H](CC(=O)O)NC(=O)[C@H](CCC(N)=O)NC(=O)[C@H](C)NC(=O)[C@H](CCCN=C(N)N)NC(=O)[C@H](CCCN=C(N)N)NC(=O)[C@H](CO)NC(=O)[C@H](CC(=O)O)NC(=O)[C@H](CC(C)C)NC(=O)[C@H](Cc1ccc(O)cc1)NC(=O)[C@H](CCCCN)NC(=O)[C@H](CO)NC(=O)[C@H](Cc1ccc(O)cc1)NC(=O)[C@H](CC(=O)O)NC(=O)[C@H](CO)NC(=O)[C@@H](NC(=O)[C@H](Cc1ccccc1)NC(=O)[C@@H](NC(=O)CNC(=O)[C@H](CCC(N)=O)NC(=O)[C@H](CO)NC(=O)[C@@H](N)Cc1c[nH]cn1)[C@@H](C)O)[C@@H](C)O)C(C)C)C(=O)N[C@@H](CC(N)=O)C(=O)N[C@H](C(=O)O)[C@@H](C)O [Glucagon]
Pan. enzyme mix [1]: - (Unstable (more than 20% decrease in SIM signal after 24 h in degradation solution))
Carboxy-peptidase mix [2]: - (Unstable (more than 20% decrease in SIM signal after 24 h in degradation solution))
